Only a part of the results on these compounds is given; other tests are left out.
System: anti-TNT antibody A1.1.1
Experiment: plate-based homogenous cross reactivity assay in PBS
Conditions: homogeneous format; for Percent cross-reactivity: PBS, calculated from the concentrations corresponding to half of the maximum signal, 7 to 5000 μg/L; for cross reactivity (in words): FIG. 5, within the error of the assay
Method: Wells of white 96-well plates (microfluor 2, Dynex) were blocked with a solution of 1% bovine serum albumin (BSA) in Tris buffered saline (50 mM Tris-HCL, 105 mM NaCl, pH 7.5; TBS) for at least 2 hours. The blocking solution was removed and 0.33 pmol of anti-TNT antibody (A1.1.1 or 11B3) in 25 μl PBS was added to each of a series of wells followed by 2.5 pmol Cy5-DAP-TNP (in 25 μl PBS). Next, 50 μl solutions of TNT (in PBS) were added to test wells to final concentrations spanning 0.05 ng/ml to 10,000 ng/ml. Controls with 50 μl PBS in place of TNT solution were also performed. The fluorescence was read in a SpectraFluor Plus microtiter plate reader (Tecan) using a 620 nm excitation filter (10 nm band pass) and a 670 nm (25 nm band pass) emission filter. Control wells containing no antibody were typically included in each run. Fluorescence data were background corrected by taking the difference between emission values obtained for wells with TNT and control wells to which only PBS buffer was added.
Plate-based homogeneous assays were also performed with artificial seawater substituted for PBS as the assay medium. Additionally, plate-based homogenous cross reactivity assays were carried out in PBS under identical conditions using known TNT breakdown products, structurally related nitroaromatic compounds, or other nitro based explosives in place of TNT to test assay specificity. The TNT related compounds 2-amino-4,6-dinitrotoluene (2A-4,6-DNT), […] ([…] ), […] ([…] ), […] ([…] ), and […] ([…] ), and the explosive […] (RDX) were examined. Concentrations between 7 and 5000 μg/L were used to construct a curve for each of the compounds (see FIG. 5). […] .
Six compounds, either structurally related to TNT or other explosives were examined in both plate assay formats to explore antibody specificity in these formats. […] CHEM., Vol. 364, Issue 1/2, pp. 113-120 (1999); and Upvan Narang, Paul R. Gauger & Frances S. Ligler, A Displacement Flow Immunosensor for Explosive Detection Using Microcapillaries, Anal. Chem., Vol. 69, pp. 2779-2785 (1997), both of which are incorporated herein by reference.

Row | Compound | Percent cross-reactivity | cross reactivity (in words)
1 | O=[N+]([O-])c1cc([N+](=O)[O-])cc([N+](=O)[O-])c1 | 19% | –
2 | O=[N+]([O-])N1CN([N+](=O)[O-])CN([N+](=O)[O-])C1 | no cross-reactivity | no cross reactivity
3 | Cc1ccc([N+](=O)[O-])cc1[N+](=O)[O-] | 5% | –
4 | 2,4,6-trinitrophenyl-n-methylnitramine | 45% | cross-reacting the most
5 | Cc1c([N+](=O)[O-])cccc1[N+](=O)[O-] | 0.3% | no cross reactivity

Source: patent US20040101900A1, “Assay for rapid detection of TNT” (published 2004)
